Sequences of proteins named here, by UniProt entry; tags and fusion partners are left off.
UniProt P30926, whole entry: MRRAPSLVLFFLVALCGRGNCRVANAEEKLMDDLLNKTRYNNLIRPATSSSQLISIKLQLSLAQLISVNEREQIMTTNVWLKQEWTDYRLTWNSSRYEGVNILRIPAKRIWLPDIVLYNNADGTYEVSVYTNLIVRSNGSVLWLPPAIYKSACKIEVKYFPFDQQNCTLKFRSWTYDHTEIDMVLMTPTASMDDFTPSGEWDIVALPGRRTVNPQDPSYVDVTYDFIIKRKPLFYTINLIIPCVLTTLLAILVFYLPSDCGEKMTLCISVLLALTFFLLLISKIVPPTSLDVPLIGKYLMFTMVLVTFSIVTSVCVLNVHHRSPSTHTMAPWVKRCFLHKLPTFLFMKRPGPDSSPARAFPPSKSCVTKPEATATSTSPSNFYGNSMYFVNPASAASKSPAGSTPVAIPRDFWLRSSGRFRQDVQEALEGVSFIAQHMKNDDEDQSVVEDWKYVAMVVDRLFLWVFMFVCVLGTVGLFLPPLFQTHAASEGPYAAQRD
UniProt P32297, whole entry: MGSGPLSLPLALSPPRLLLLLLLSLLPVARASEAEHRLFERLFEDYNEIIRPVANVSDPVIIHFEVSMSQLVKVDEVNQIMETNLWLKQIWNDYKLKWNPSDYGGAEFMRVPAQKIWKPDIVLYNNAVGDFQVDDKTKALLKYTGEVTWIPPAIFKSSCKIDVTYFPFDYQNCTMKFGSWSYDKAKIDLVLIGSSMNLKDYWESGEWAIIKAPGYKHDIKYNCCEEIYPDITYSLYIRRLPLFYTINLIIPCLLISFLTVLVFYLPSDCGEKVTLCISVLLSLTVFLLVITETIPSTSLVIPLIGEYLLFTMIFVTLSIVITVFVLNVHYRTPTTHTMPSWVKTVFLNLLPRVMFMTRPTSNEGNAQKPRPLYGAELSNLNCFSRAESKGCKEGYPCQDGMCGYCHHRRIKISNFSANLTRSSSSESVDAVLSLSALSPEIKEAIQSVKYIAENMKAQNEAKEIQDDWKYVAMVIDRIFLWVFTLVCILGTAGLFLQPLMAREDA

In ChEMBL document CHEMBL4428135, “Varying Chirality Across Nicotinic Acetylcholine Receptor Subtypes: Selective Binding of Quinuclidine Triazole Compounds” (ACS Med Chem Lett, 2016):

Molecular target: Neuronal acetylcholine receptor; alpha3/beta4 (Homo sapiens, UniProt P30926+P32297)

Question: Which Ki does the source give for `CN1C2CCCC1CC(Nc1ccccc1Br)C2` (stereo unspecified) here?
Answer: Its Ki is 2.64 nM.
